Test results as given in PubChem BioAssay AID493014 (National Center for Advancing Translational Sciences (NCATS), 2011).
The list shows a part of the results, in another mix than the full data. Results filed as inconclusive are left out. Active and inactive are the calls of the source. Calls come from the whole dose curve; as a rule, active = well fitted inhibition curve with a large enough effect in the signal ratio, with a control signal flat (not every such curve was filed as active); inconclusive = small, poorly fitted or top-dose-only effect, or effect the other way, or a change in a side signal; inactive = flat fitted curve, though single readings scatter; the % refers to the signal ratio.

assay: qHTS Assay to Find Inhibitors of Chronic Active B-Cell Receptor Signaling; settings: ABC-DLBCL IkBa-CBG/CBR reporter, luminescence ratio (green luciferase fused to IkBa over red control in TMD8 lymphoma cells), 4 h; at 46.1 µM (top of the series)
Text: NIH Molecular Libraries Probe Production Network [MLPCN] NIH Chemical Genomics Center [NCGC] MLPCN Grant: 1 R03 DA031086-01A1 PI Name: Dr. R. Eric Davis NCGC Assay Overview: Diffuse large B-cell lymphoma (DLBCL) is the most common category of non-Hodgkin lymphoma, with ~20,000 new cases per year in the United States. DLBCL should be regarded as a collection of different neoplasms. Microarray gene expression analysis has defined two principal types of DLBCL, named for their similarity to normal B cell stages or activation states: a germinal center B-cell (GCB) type, and an activated B-cell (ABC) type. In ABC-DLBCL, a constitutive high-level activity of the NF-kappaB family of transcription factors has been observed (1) and NF-kappaB target genes are more highly expressed in ABC primary tumors than in GCB tumors. Functional studies have shown a constitutive high-level activity of the IkappaB (inhibitor of kappa-B) kinase (IKK) complex. […] Further analysis of DLBCL primary tumors for NF-kappaB target gene expression imply that although CARD11 is required for constitutive IKK activity in all ABC-DLBCL lines, mutations in CARD11 may be the root cause of IKK activation only in lines or tumors with such mutations. In other words, CARD11 mutations may explain NF-kappaB activation in only 10% of ABC-DLBCL cases. […] This process has been termed 'chronic active BCR signaling' (CABS). The goal of this screen is to find small-molecule inhibitors of the CABS pathway found in ABC-DLBCL lines using a cell-based assay that measures IkappaBalpa stability, which has already been extensively validated in the OCI-Ly3 line (PubChem AID:445; REF: 4). […] The assay uses green (CBG68) and red (CBR) emitting beetle luciferases [Chroma-GloTM developed by Promega Corp.] where the green luciferase is fused to IkappaBalpha and the red luciferase is present in its native state. Both luciferase genes are stably present in the TMD8 human ABC DLBCL cell line, but their expression is under the control of tetracycline-inducible promoters. Following the addition of doxycycline to induce expression of the luciferases, the green luminescence in control cultures rises only slowly because the CBG fusion partner IkappaBalpha is targeted by IKK activity for rapid degradation. In contrast, green luminescence rises rapidly in the presence of proteasome inhibitors or IKK inhibitors. The rise in red luminescence of CBR is not affected by proteasome or IKK inhibitors, and serves as normalization for cell number and nonspecific effects. Compounds were screened as a concentration-titration series that ranged from 46 uM to 3 nM.
NCGC Assay Protocol Summary: Cells were seeded in 1536-well plates at 5000 cells/4uL in IMDM medium containing 0.5% FBS, w/o phenol red, 1% penicillin/streptomycin. Then, 23 nL of compounds or DMSO were delivered to each well using a pin tool. One uL 20ng/ml doxycycline was then dispensed into white solid 1536-well plates and the plates were incubated at 37C/5% C02 in a cell incubator for 4 hrs. Then 4 uL luminescent substrate mix (in-house prepared: 150 mM Tris-Cl, pH 7.6, 3 mM MgCl2, 1% Triton X-100, 5 mM DTT, 0.2 mM CoA, 0.15 mM ATP, 5 mM D-luciferin, final concentrations) was added to each well. The plate was incubated at r.t. for 10-15 min. The plates were measured on a ViewLux plate reader for green luminescence (540/20 nm filter) and red luminescence (618/8 nm filter). The green and red luminescent signals were corrected for red and green luminescence filter overlap using previously determined filter calibration constants (determined using the procedure outlined in the Promega Technical Manual; REF 4). The %Activity was determined from the ratio of corrected green/red luminescent values. MG132 were used as control. […] Red luminescent %Activity was normalized to the difference between red luminesence in basal cells (0%Activity) and zero luminescence (-100% Activity). […]

Structure (SMILES) | activity change, negative = inhibition
Cc1cccc(C)c1OP(C)(N)=O (stereo not given) | inactive: -0.664%
CC(C)(C)c1ccc(OP(C)(=O)Nc2ccc(SC(F)(F)F)cc2)cc1 (stereo not given) | inactive: -1.27%
Cc1cc(C)cc(OP(C)(N)=O)c1 (stereo not given) | inactive: 5.72%
COc1ccc(OP(C)(=O)Nc2cccc(F)c2)cc1 (stereo not given) | inactive: -7.69%
COc1ccccc1OP(C)(=O)Nc1cc(Cl)ccc1C (stereo not given) | inactive: -14%
Cc1ccc(NP(C)(=O)Oc2ccccc2)c(C)c1 (stereo not given) | inactive: 12.9%
CCOC(=O)c1ccc(NP(C)(=O)Oc2ccccc2)cc1 (stereo not given) | inactive: 2.15%
Cc1cc(C)cc(OP(C)(=O)Nc2ccc(SC(F)(F)F)cc2)c1 (stereo not given) | inactive: -11.4%
CP(=O)(NC(=O)Nc1ccccc1)Oc1ccccc1 (stereo not given) | inactive: -1.87%
CCc1ccc(OP(C)(=O)N2CCN(c3ccc([N+](=O)[O-])cc3)CC2)cc1 (stereo not given) | inactive: 8.34%
CP(=O)(Oc1ccccc1)OC(c1ccccc1)C(F)(F)F (stereo not given) | inactive: 0.491%
Cc1cccc(C)c1OP(C)(=O)Nc1ccc(SC(F)(F)F)cc1 (stereo not given) | inactive: -6.16%
CP(=O)(Nc1ccc(SC(F)(F)F)cc1)Oc1ccc(Cl)cc1 (stereo not given) | inactive: -0.0308%
CCOC(=O)c1ccc(NP(C)(=O)Oc2ccc(OC)cc2)cc1 (stereo not given) | inactive: -14.3%
CCOP(C)(=S)SCC(=O)NC(C)C(=O)O (stereo not given) | inactive: 4.48%
CP(=O)(Nc1ccccc1Br)Oc1ccccc1 (stereo not given) | inactive: 1.4%
COc1ccccc1OP(C)(=O)Nc1ccccc1 (stereo not given) | inactive: 2.9%
CP(=S)(Nn1cnnc1)Oc1ccccc1 (stereo not given) | inactive: -12%
O=[N+]([O-])c1cc([N+](=O)[O-])c(Nc2nnnn2CCO)c([N+](=O)[O-])c1 | inactive: 8.98%
CCCOc1ccc(NP(C)(=O)Oc2ccc(Cl)cc2)cc1 (stereo not given) | inactive: 1.1%
CP(=O)(Nc1ccc(SC(F)(F)F)cc1)Oc1ccccc1 (stereo not given) | inactive: -11.4%
COc1ccccc1OP(C)(=O)Nc1c(C)cccc1C (stereo not given) | inactive: 4.77%

Structure (SMILES) | activity change, negative = inhibition
CN1CCCCC1COC(=O)C1(O)c2ccccc2CCc2ccccc21 (stereo not given) | inactive: 4.72%
O=[N+]([O-])c1cc([N+](=O)[O-])c(-n2nnc3ccccc32)c([N+](=O)[O-])c1 | inactive: 1.83%
Cc1nc2ccc3ccccc3c2s1.O=[N+]([O-])c1cc([N+](=O)[O-])c(O)c([N+](=O)[O-])c1 | inactive: -1.36%
CCOC(=O)c1ccc(NP(C)(=O)Oc2cc(C)cc(C)c2)cc1 (stereo not given) | inactive: -16.7%
Cc1cc(C)cc(OP(C)(=O)Nc2ccc(C)cc2C)c1 (stereo not given) | inactive: -20.2%
COc1ccccc1OP(C)(=O)Nc1cccc(Br)c1 (stereo not given) | inactive: 0.702%
Cc1ccc(C)c(NP(C)(=O)Oc2ccccc2)c1 (stereo not given) | inactive: 0.89%
Cc1cc(C)cc(OP(C)(=O)Nc2ccccn2)c1 (stereo not given) | inactive: 8.42%
CP(=O)(Nc1cccc(Br)c1)Oc1ccccc1 (stereo not given) | inactive: -3.96%
CCOC(=O)c1ccc(NP(C)(=O)Oc2ccc(F)cc2)cc1 (stereo not given) | inactive: 0.148%
COc1ccc(OP(C)(=O)Nc2ccc(SC(F)(F)F)cc2)cc1 (stereo not given) | inactive: -17.5%
CCCCCOc1ccc(NP(C)(=O)Oc2ccc(Cl)cc2Cl)cc1 (stereo not given) | inactive: 13.5%
CCN(CC)CCCOC(=O)C(O)(c1ccccc1)C1CCCCC1 (stereo not given) | inactive: -13.9%
CP(=O)(Nc1ccccc1F)Oc1ccccc1 (stereo not given) | inactive: 2.18%
CC(C)c1ccc(OP(C)(=O)Nc2ccc(SC(F)(F)F)cc2)cc1 (stereo not given) | inactive: -3.91%
O=C(OCCN1CCN(CCOCc2ccccc2)CC1)C(O)(c1ccccc1)c1ccccc1 | inactive: -3.76%
CCOP(C)(=S)SCC(=O)NC(C)(CC)C(=O)O (stereo not given) | inactive: 2.2%
CP(=O)(Nc1ccc(SC(F)(F)F)cc1)Oc1ccc(F)cc1 (stereo not given) | inactive: -0.874%
Cc1ccccc1NP(C)(=O)Nc1ccccc1C | inactive: -0.869%
CP(=O)(Nc1ccc2c(c1)OCCO2)Oc1ccccc1 (stereo not given) | inactive: -31.5%
CN(C)CCOC(=O)C(O)(c1ccccc1)C1CCCCC1 (stereo not given) | inactive: 1.58%
COc1ccc(NP(C)(=O)Oc2ccccc2OC)cc1 (stereo not given) | inactive: 3.53%

Structure (SMILES) | activity change, negative = inhibition
O=[N+]([O-])c1ccc(OP2(=O)COCCO2)cc1 (stereo not given) | inactive: -7.98%
Cc1cc(-c2cccc3ccccc23)c(C)cn1.O=[N+]([O-])c1cc([N+](=O)[O-])c(O)c([N+](=O)[O-])c1 | inactive: -0.81%
CCOC(=O)c1ccc(NP(C)(=O)Oc2ccc(Cl)cc2)cc1 (stereo not given) | inactive: -1.44%
CP(=O)(OC12CC3CC(CC(C3)C1)C2)OC12CC3CC(CC(C3)C1)C2 | inactive: -6.18%
COc1ccccc1OP(C)(=O)Nc1c(C)n(C)n(-c2ccccc2)c1=O (stereo not given) | inactive: 1.81%
CCc1ccc(OP(C)(=O)Nc2cccnc2)cc1 (stereo not given) | inactive: -0.759%
CCN(CC)CC(O)COC(=O)C(O)(c1ccccc1)C1CCCCC1 (stereo not given) | inactive: 2%
COc1ccccc1OP(C)(=O)Nc1ccccc1Br (stereo not given) | inactive: 0.276%
CC(C)(C)c1ccc(OP(C)(=O)O)cc1 | inactive: -16%
CP(=O)(Nc1ccc(Cl)cc1)Oc1ccc(F)cc1 (stereo not given) | inactive: -3.51%
COc1ccc(OP(C)(=O)Nc2ccccn2)cc1 (stereo not given) | inactive: 7.3%
CN(C)CCOC(=O)C(O)(c1ccccc1)C1CCCC1 (stereo not given) | inactive: -2.24%
COc1ccccc1OP(C)(=O)Nc1ccc(C)cc1C (stereo not given) | inactive: 4.98%
CP(=O)(Nc1ccccn1)Oc1ccccc1 (stereo not given) | inactive: -1.32%
CCc1ccc(OP(C)(=O)O)cc1 | inactive: -0.427%
Cc1c(NP(C)(=O)Oc2ccc(C(C)C)cc2)c(=O)n(-c2ccccc2)n1C (stereo not given) | inactive: -10.4%
COc1ccccc1OP(C)(=O)Nc1ccc(C)c(C)c1 (stereo not given) | inactive: -12.5%
COc1ccc(OP(C)(=O)Nc2ccccc2Br)cc1 (stereo not given) | inactive: -3.3%
Cc1cc(C)cc(OP(C)(=O)Nc2cccc(C(F)(F)F)c2)c1 (stereo not given) | inactive: -2.58%
CP(=O)(OCCOc1ccccc1)OCCOc1ccccc1 | inactive: -0.188%
Cc1nc2ccc3ccccc3c2o1.O=[N+]([O-])c1cc([N+](=O)[O-])c(O)c([N+](=O)[O-])c1 | inactive: -13.8%
